# Laboratory results as given in paper PMC12836348, “Alanine Mutagenesis Identifies Specific Amino Acids of Nemertide Alpha‑1 Activity and Its Binding to Target Receptors” (Journal of Natural Products, 2025).
# Assays:
# VdNav = assay: Ion channel panel, VdNav; type: cell-based, Varroa destructor; set-up: key: “+” means tested and produced effect; “–“ means tested but no effect; details: S12A at 5 μM; Xenopus oocytes, n ≥ 3
# Description: For the expression of NaV channels (hNav1.1, rNaV1.2, rNaV1.3, rNaV1.4, hNaV1.5, hNaV1.6, hNav1.7, and the insect channel BgNaV1) in Xenopus laevis oocytes, the linearized plasmids were transcribed using the T7 or SP6 mMESSAGE-mMACHINE transcription kit (Ambion, Carlsbad, CA, USA). The harvesting of stage V and VI oocytes from an anaesthetized female X. laevis frog was described previously. , Oocytes were injected with 50 nL of cRNA at a concentration of 1 ng/nL using a microinjector (Drummond Scientific, Broomall, PA, USA). The oocytes were incubated in a solution containing 96 mM NaCl, 2 mM KCl, 1.8 mM CaCl2, 2 mM MgCl2, and 5 mM HEPES (pH 7.4), supplemented with 50 mg/L gentamycin sulfate. […] Whole-cell currents from oocytes were recorded 1–4 days after injection. […]
# To assess the concentration–response relationships, data were fitted with the Hill equation: y = 100/[1 + (EC50/[toxin])^ h ], where y is the amplitude of the toxin-induced effect (y = I 30 ms/I peak where I 30 ms is the current value at 30 ms in the presence of toxin and I peak is the peak current amplitude in control conditions), EC50 is the toxin concentration at half-maximal efficacy, [toxin] is the toxin concentration, and h is the Hill coefficient. […] ASIC1a currents were measured in ND96 solutions at a pH of 7.4 and 4.5, at a holding potential of −70 mV during 400 s, and the data were filtered at 20 Hz. […]
# ASIC1a = assay: Ion channel panel, ASIC1a; type: cell-based; set-up: key: “+” means tested and produced effect; “–“ means tested but no effect; details: S12A at 5 μM; ND96 pH 7.4 and 4.5, −70 mV, n ≥ 3
smiles,measurement,setting,value
CC[C@H](C)[C@@H]1NC(=O)[C@@H](NC(=O)CN)CSSC[C@@H]2NC(=O)[C@@H]3CSSC[C@@H](C(=O)N[C@@H](CC(N)=O)C(=O)N4C[C@H](O)C[C@H]4C(=O)N4C[C@H](O)C[C@H]4C(=O)N[C@@H](CC(N)=O)C(=O)N[C@@H](CCC(N)=O)C(=O)O)NC(=O)[C@H](CCCCN)NC(=O)[C@H](Cc4ccccc4)NC(=O)[C@H](CC(N)=O)NC(=O)[C@H](Cc4c[nH]c5ccccc45)NC(=O)CNC(=O)[C@H](CSSC[C@H](NC(=O)[C@H](Cc4ccccc4)NC(=O)[C@H](CO)NC(=O)CNC(=O)[C@H]([C@@H](C)O)NC(=O)[C@H](C)NC1=O)C(=O)N[C@@H]([C@@H](C)O)C(=O)N[C@@H](CC(C)C)C(=O)N[C@@H](C)C(=O)N[C@@H](CCCCN)C(=O)NCC(=O)N3)NC(=O)[C@H](CC(N)=O)NC(=O)[C@H](CCCCN)NC(=O)[C@H]([C@@H](C)O)NC2=O [Peptide S12A],effect on VdNav,VdNav,+
same,effect on ASIC1a,ASIC1a,–
